High-throughput results from PubChem.
Statin myotox sup – suppressors of simvastatin-induced myotoxicity in C2C12 myotubes; ATP luminescence, 48 h; scaled: DMSO 0, geranylgeraniol control 100; rescue of ATP level, % at 7.49 µM; 330,000 tested, 0.78% active; AID 602340;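 active = mean ATP rescue above about 67%, or every replicate alone reaching that limit, limit read from the data, passing the limit was not always enough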;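 also: myotubes were challenged with 10 µM simvastatin during compound exposure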
Cneo AK release – causes C. neoformans cell lysis; adenylate kinase release luminescence, 4 h; normalised: neutral wells 0, clomiphene wells 100; lysis activity, % at 15 µM; 360,000 tested, 0.2% active; AID 651654;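 active = mean lysis activity across replicates of at least 80%, whatever share of replicates individually reach that level; inactive = mean lysis activity below 80%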
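Material – Cryptococcus neoformans yeast cells · Quantity – 5 × 10^6 yeast cells/mL · Buffer or medium – YPD medium · Compound – single dose · Timing – 4 h static compound exposure, 37 °C, read 1 h post-reagent · Signal – adenylate kinase release luminescence · Read-out basis – lysis from increased AK signal · Benchmarks – Clomiphene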
Yeast UUG start-1 – alters start codon recognition fidelity in yeast; AID 602363; activity score, % at 18.7 µM; 350,000 tested, 0.13% active; S. cerevisiae UUG-firefly luciferase reporter, luminescence/redox ratio;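 active means replicate mean at a twofold rise or more, about +100% in these data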;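 further: firefly luciferase made from a UUG start codon reports start codon fidelity; reporter light over untreated wells divided by growth signal over untreated wells; some hits fall short of that in this replicate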
miR-122 sensor – blocks miR-122 activity in Huh7 sensor cells; Huh7 miR-122 Renilla luciferase sensor, 48 h; neutral wells = 0, positive control = 100; 340,000 tested, 0.3% active; AID 602342; activation (reporter increase), % at 12.5 µM;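 active = mean replicate activation score at least 90 and every replicate individually at or above 90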;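 also: higher luciferase means less miR-122 activity so hits act as miR-122 inhibitors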
Yeast UUG start-2 – modulators of start codon recognition fidelity in yeast; 540 tested, under 10 active; AID 652061; shares compounds with Yeast UUG start-1; S. cerevisiae UUG-start firefly luciferase, luminescence, 4 h; 100% means double the DMSO signal; activation, % at 38 µM;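 active = signal increase whose fitted curve reaches an absolute level of 40 at a concentration under 10 µM; inactive = activity opposite to the expected increase, or the rest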
* hit, by the source's call; i = inactive; x = no result given; [ ] = another dose, or the depositor's remark. Rows were chosen to be rich in hits. Some 1.2% of all compounds tested hit in one or more screens of this group.

SMILES	Statin myotox sup	miR-122 sensor	Yeast UUG start-2	Yeast UUG start-1	Cneo AK release
COc1ccccc1NC(=O)c1ccc(NS(=O)(=O)c2c(C)noc2C)cc1	-29.0	6.2	-4.0	441.9*	-6.3
COc1ccc(NC(=O)c2ccc(NS(=O)(=O)c3c(C)noc3C)cc2)cc1OC	-35.8	-1.2	x	1.3	-1.7
O=C(Nc1ccc(Cl)cc1)N[C@H]1CC[C@H](CCNC(=O)c2ccccc2F)O[C@H]1CO	1.5	x	i	91.3*	-0.7
O=C(Nc1ccc(Cl)cc1)N[C@H]1CC[C@@H](CCNC(=O)c2ccccc2F)O[C@H]1CO	2.0	x	x	3.1	4.6
O=C(NCC[C@@H]1CC[C@H](NC(=O)c2cnccn2)[C@@H](CO)O1)Nc1ccc(F)cc1	-6.8	x	i	158.6*	-0.9
O=C(NCC[C@H]1CC[C@@H](NS(=O)(=O)c2cccc(F)c2)[C@@H](CO)O1)c1cnccn1	20.9	x	x	90.2	-1.6
O=C(NCC[C@H]1CC[C@H](NS(=O)(=O)c2cccc(F)c2)[C@H](CO)O1)c1cnccn1	-1.1	x	i	112.9*	-0.9
O=C(NCc1ccccn1)c1c(-c2ccccc2)sc2ccccc12	2.2	3.9	4.2	61.6*	4.1
O=C(NCc1ccccn1)c1ccc(-c2ccccc2)cc1	-6.2	-5.7	x	x	x
C[C@H](CO)N1C[C@H](C)[C@@H](CN(C)C(=O)Nc2ccc(C(F)(F)F)cc2)OCCCC[C@H](C)Oc2ccc(NS(=O)(=O)c3ccccc3)cc2C1=O	x	-2.0[16.7 µM]	x	7.1	60.2
C=CCO/N=C(/C)c1c(O)c(CC)c(-c2ccccc2)n(-c2ccccc2)c1=O	3.3	-1.9	-3.8	280.4*	-9.4
CCc1c(O)c(/C(C)=N\O)c(=O)n(-c2ccccc2)c1-c1ccccc1	-5.4	-4.8	x	-13.4	1.9
Cc1ccc(S(=O)(=O)Nc2ccc3c(c2)CC(=O)N([C@@H](C)CO)C[C@@H](C)[C@H](CN(C)CC2CCCCC2)O3)cc1	43.4	-7.3[16.7 µM]	x	8.7	14.7
N#Cc1ccccc1CN1C(=O)NC(Cc2c[nH]c3ccccc23)C1=O (centres undefined)	-3.8	5.8	9.8	588.2*	0.5
O=C1NC(Cc2c[nH]c3ccccc23)C(=O)N1Cc1ccccc1 (centres undefined)	-0.7	6.2	x	-11.6	-1.1
Cc1ccc(Oc2nc3ccccn3c(=O)c2/C=C(\C#N)C(=O)Nc2c(C)n(C)n(-c3ccccc3)c2=O)c(C)c1	x	-6.1	x	7.1	-2.4
COc1ccccc1Oc1nc2ccccn2c(=O)c1/C=C(\C#N)C(=O)Nc1c(C)n(C)n(-c2ccccc2)c1=O	x	-1.0	7.1	111.8*	1.2
CCCC#Cc1cnc2c(c1)C(=O)N([C@H](C)CO)C[C@H](C)[C@@H](CN(C)C(=O)CCN1CCCCC1)O2	-0.2	-1.8	4.0	166.2*	2.0
CC(C)CC#Cc1cnc2c(c1)C(=O)N([C@H](C)CO)C[C@H](C)[C@@H](CN(C)C(=O)CC1CC1)O2	x	26.6[16.7 µM]	i	146.6*	-0.8
O=C(Cc1ccccn1)NCC[C@@H]1CC[C@@H](NC(=O)c2ccccc2F)[C@@H](CO)O1	4.3	x	x	-1.8	30.0
COc1ccccc1NC(=O)N[C@H]1CC[C@H](CC(=O)N2CCC(Cc3ccccc3)CC2)O[C@H]1CO	-1.3	x	x	16.6	1.5
CCC(=O)N1C[C@@H](O)COC[C@@H]2O[C@@H](CC(=O)NCC3CCCCC3)CC[C@H]21	-1.4	-6.2[16.7 µM]	x	-5.4	-2.1
CCC(=O)N1C[C@@H](O)COC[C@H]2O[C@@H](CC(=O)NCC3CCCCC3)CC[C@@H]21	7.7	-0.2[16.7 µM]	i	111.7*	-2.6
C[C@@H]1CN([C@@H](C)CO)C(=O)c2cccc(NC(=O)C3CC3)c2O[C@@H]1CN(C)C(=O)Nc1ccc2c(c1)OCO2	-3.4	-7.5[16.7 µM]	x	-1.5	0.3
CCS(=O)(=O)Nc1ccc2c(c1)C(=O)N(C)C[C@@H](OC)[C@@H](C)CN(CC1CCCCC1)[C@@H](C)CO2	8.0	2.2[16.7 µM]	x	-4.0	-1.2
O=C(CNC(=O)c1ccccc1F)NCCOc1cccc(Cl)c1Cl	0.5	-0.3	1.7	517.4*	0.4
O=C(CNC(=O)c1ccccc1F)NCCc1ccc(Cl)cc1	3.7	1.8	x	-11.4	10.6
COCC#Cc1ccc2c(c1)O[C@H](CN(C)S(=O)(=O)c1cccc(F)c1)[C@@H](C)CN([C@H](C)CO)S2(=O)=O	-29.0	7.6[16.7 µM]	x	-0.1	-2.7
CC1CN(Cc2c(O)ccc3c(=O)c(-c4ccccc4)coc23)CC(C)O1 (centres undefined)	1.3	1.9	x	-2.3	-2.5
CC1CN(Cc2c(O)ccc3c2oc(=O)c2ccccc23)CC(C)O1 (centres undefined)	10.0	-4.1	15.2	155.7*	8.5

As a working copy, part of the list above:
SMILES	Statin myotox sup	miR-122 sensor	Yeast UUG start-2	Yeast UUG start-1	Cneo AK release
COc1ccccc1NC(=O)c1ccc(NS(=O)(=O)c2c(C)noc2C)cc1	-29.0	6.2	-4.0	441.9*	-6.3
COc1ccc(NC(=O)c2ccc(NS(=O)(=O)c3c(C)noc3C)cc2)cc1OC	-35.8	-1.2	x	1.3	-1.7

(list continues)
SMILES	Statin myotox sup	miR-122 sensor	Yeast UUG start-2	Yeast UUG start-1	Cneo AK release
COc1ccc(C/C(C)=N/NC(=O)c2ccc(C)cc2C)cc1	-0.6	-5.9	-2.8	538.7*	-0.4
O=c1cc(CO)occ1OCc1ccccc1	3.3	-4.4	6.6	483.8*	3.9
CCCNC(=O)C[C@H]1CC[C@@H]2[C@@H](COc3ccc(NC(=O)c4ccc(Cl)cc4)cc3C(=O)N2C)O1	18.9	1.0[16.7 µM]	x	-6.4	-12.8
CCOC(=O)CNC(=O)c1ccccc1	0.6	-0.8	10.2	103.0*	-0.3
CCOc1cc(C(=S)N2CCOCC2)ccc1OC(=O)/C=C/c1ccc(OC)c(OC)c1	0.0	-0.1	3.2	517.5*	0.2
CCC(=O)Nc1ccc2c(c1)OC[C@H](C)N(Cc1cncnc1)C[C@@H](C)[C@@H](OC)CN(C)C2=O	7.9	4.7[16.7 µM]	x	-13.1	1.1
CC(C)(C)Cc1c(-c2ccc(C#N)cc2)nc2ccc(Cl)cn12	3.6	2.4	-5.8	165.0*	-0.4
Cc1ccc(S(=O)(=O)N[C@H]2CC[C@H](CCNC(=O)C3CCCCC3)O[C@H]2CO)cc1	-15.3	8.0[16.7 µM]	i	146.1*	-1.4
COc1ccccc1S(=O)(=O)N[C@H]1CC[C@@H](CCNC(=O)C2CCCC2)O[C@@H]1CO	-5.6	-17.3[16.7 µM]	i	126.9*	-8.8
Cc1ccc(S(=O)(=O)N[C@@H]2CC[C@@H](CCNC(=O)C3CCCCC3)O[C@@H]2CO)cc1	-9.9	-15.8[16.7 µM]	x	-14.6	0.1
COc1ccccc1S(=O)(=O)N[C@@H]1CC[C@H](CCNC(=O)C2CCCC2)O[C@H]1CO	-2.0	0.2[16.7 µM]	x	-11.1	-2.6
CC(C)NC(=O)N[C@H]1CC[C@H](CCNC(=O)C2CCC2)O[C@H]1CO	0.1	9.2[16.7 µM]	i	135.6*	1.5
Cc1cc(Nc2ccc(Cl)cc2)nc(NCc2ccccc2)n1	x	4.6	-2.2	active	x
Cc1onc(-c2ccc(Cl)cc2)c1-c1ccnn1S(=O)(=O)c1cccc(C(F)(F)F)c1	x	-2.1	18.7	186.8*	2.0
COc1ccc(NC(=O)Nc2ccc3c(c2)C(=O)N([C@H](C)CO)C[C@H](C)[C@H](CN(C)CC2CC2)OCCCC[C@@H](C)O3)cc1	x	2.0[16.7 µM]	x	x	1.4
C[C@H](CO)N1C[C@H](C)[C@H](CN(C)Cc2ccccc2F)Oc2cc(C#CC3CC3)ccc2S1(=O)=O	11.1	-3.5[16.7 µM]	x	0.4	3.6

Whole records as entered above:
Entry for `C[C@H](CO)N1C[C@H](C)[C@H](CN(C)Cc2ccccc2F)Oc2cc(C#CC3CC3)ccc2S1(=O)=O` = Statin myotox sup: 11.1; miR-122 sensor: -3.5[16.7 µM]; Yeast UUG start-2: x; Yeast UUG start-1: 0.4; Cneo AK release: 3.6
Entry for `O=c1cc(CO)occ1OCc1ccccc1` = Statin myotox sup: 3.3; miR-122 sensor: -4.4; Yeast UUG start-2: 6.6; Yeast UUG start-1: 483.8*; Cneo AK release: 3.9
